Earlier results on 1 substance are cited in patent US20260028410A1, “TREATMENT OF GRAFT VERSUS HOST DISEASES USING ANTI-CD122 ANTIBODY” (FORTE SUBSIDIARY, INC., priority 2023, published 2026).

What is called Kd is a measure of binding affinity in units of concentration.

In this data set the target is high-affinity heterotrimer IL-αβγ receptor. Conditions: ligand affinity for IL-αβγ receptor combinations; cited from earlier work.

In the case of IL2: interleukin 2, cytokine, the Kd is ~10 pM.
